Test results taken from publication PMC6032384 (International Journal of Molecular Sciences, 2018).
Where two headings read alike, the source gives them in different places.

Assays:
[1] = test system: HL-60 (human promyelocytic leukemia); conditions: for IC50: HL-60, AB assay, 72 h
[2] = test system: K-562 (human chronic myelogenous leukemia); conditions: for IC50: K562, AB assay, 72 h
[3] = test system: HCT116 (human colon carcinoma); conditions: HCT116, AB assay, 72 h
[4] = test system: MCF7 (human breast carcinoma)
[5] = test system: HepG2 (human hepatocellular carcinoma); conditions: HepG2, AB assay, 72 h
[6] = test system: HSC-3 (human oral squamous cell carcinoma)
B16-F10 (mouse melanoma) [7] = conditions: B16-F10, AB assay, 72 h
[8] = test system: HL-60 (human promyelocytic leukemia); assay: cells; conditions: HL-60, 72 h
[9] = test system: K-562 (human chronic myelogenous leukemia); assay: cells; conditions: K562, 72 h
[10] = test system: HCT116 (human colon carcinoma); assay: cells; conditions: HCT-116, 72 h
[11] = test system: HepG2 (human hepatocellular carcinoma); assay: cells; conditions: HepG2, 72 h
[12] = test system: HSC-3 (human oral squamous cell carcinoma); assay: cells; conditions: HSC-3, 72 h
B16-F10 (mouse melanoma) [13] = assay: cells; conditions: B16-F10, 72 h

Question: Which IC50 [1] does the source give for `O=C1[O][Pt]2([NH][C@@H]3CCCC[C@H]3[NH]2)[O]C1=O` [OXA, Oxaliplatin] here?
Answer: 600 nM

Question: And the IC50 [2]?
Answer: 1000 nM

Question: What does the source list for `Cc1c[nH]c(=O)[n-]c1=O.F[P-](F)(F)(F)(F)F.[Ru+2].c1ccc(-c2ccccn2)nc1.c1ccc(P(c2ccccc2)c2ccccc2)cc1.c1ccc(P(c2ccccc2)c2ccccc2)cc1` [CRT, [Ru(PPh3)2(Thy)(bipy)]PF6]?
Answer: IC50 [1]: 1400 nM; IC50 [2]: 1300 nM; IC50 [3]: 1600 nM; IC50 ([4]; MCF7, AB assay, 72 h): 11100 nM; IC50 [5]: 2800 nM; IC50 ([6]; HSC3, AB assay, 72 h): 1100 nM; IC50 (B16-F10 (mouse melanoma) [7]): 1400 nM

Question: Which results are given for `COc1cccc2c1C(=O)c1c(O)c3c(c(O)c1C2=O)C[C@@](O)(C(=O)CO)C[C@@H]3O[C@H]1C[C@H](N)[C@H](O)[C@H](C)O1` [DOX, Doxorubicin]?
Answer: Selectivity index (SI) ([1]; IC50[MRC5]/IC50[HL-60]): 5; Selectivity index (SI) ([1]; IC50[PBMC]/IC50[HL-60]): 17; Selectivity index (SI) ([2]; IC50[MRC5]/IC50[K-562]): 5; Selectivity index (SI) ([2]; IC50[PBMC]/IC50[K-562]): 17; Selectivity index (SI) ([4]; IC50[PBMC]/IC50[MCF7]): 4.6; Selectivity index (SI) ([6]; IC50[MRC5]/IC50[HSC-3]): 5; Selectivity index (SI) ([6]; IC50[PBMC]/IC50[HSC-3]): 17; IC50 [8]: 300 nM; IC50 [9]: 300 nM; IC50 [10]: 100 nM; IC50 [11]: 100 nM; IC50 [12]: 300 nM; IC50 (B16-F10 (mouse melanoma) [13]): 100 nM
